Test results published in patent publication US20220042033A1, “COMPOSITION AND METHOD FOR CONFERRING AND/OR ENHANCING TOLERANCE AGAINST HERBICIDES BY USING VARIANTS OF PPO” (FarmHannong Co., Ltd., priority 2017, published 2022).

The chains behind the UniProt entries cited, without tags or fusion partners. Residues count along the entry.
UniProt P56601, whole entry R95A: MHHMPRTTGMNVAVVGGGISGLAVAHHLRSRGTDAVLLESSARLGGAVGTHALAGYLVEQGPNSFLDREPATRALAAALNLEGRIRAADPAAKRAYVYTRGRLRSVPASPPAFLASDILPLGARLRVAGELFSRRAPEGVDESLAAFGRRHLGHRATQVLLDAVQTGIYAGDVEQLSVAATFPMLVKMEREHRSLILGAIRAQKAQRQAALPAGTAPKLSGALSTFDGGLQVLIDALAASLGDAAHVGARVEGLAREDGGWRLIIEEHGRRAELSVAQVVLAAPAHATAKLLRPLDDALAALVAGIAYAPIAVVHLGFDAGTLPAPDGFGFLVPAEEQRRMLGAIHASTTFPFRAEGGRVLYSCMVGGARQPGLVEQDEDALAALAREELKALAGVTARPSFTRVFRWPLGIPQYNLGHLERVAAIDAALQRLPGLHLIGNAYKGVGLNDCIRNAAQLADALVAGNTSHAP
UniProt P56601, whole entry I168C: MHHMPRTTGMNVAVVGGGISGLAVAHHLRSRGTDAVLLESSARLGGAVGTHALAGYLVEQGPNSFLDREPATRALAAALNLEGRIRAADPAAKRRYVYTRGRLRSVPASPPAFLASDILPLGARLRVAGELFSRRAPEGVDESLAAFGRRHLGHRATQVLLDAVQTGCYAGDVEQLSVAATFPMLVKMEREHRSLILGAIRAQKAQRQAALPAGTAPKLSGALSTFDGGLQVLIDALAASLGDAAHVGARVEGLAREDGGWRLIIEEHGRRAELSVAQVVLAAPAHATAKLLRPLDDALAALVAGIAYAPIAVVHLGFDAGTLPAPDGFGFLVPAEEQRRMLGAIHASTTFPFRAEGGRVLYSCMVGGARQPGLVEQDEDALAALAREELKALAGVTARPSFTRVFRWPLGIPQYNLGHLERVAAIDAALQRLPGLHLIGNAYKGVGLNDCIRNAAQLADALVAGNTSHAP
UniProt P56601, whole entry L332T: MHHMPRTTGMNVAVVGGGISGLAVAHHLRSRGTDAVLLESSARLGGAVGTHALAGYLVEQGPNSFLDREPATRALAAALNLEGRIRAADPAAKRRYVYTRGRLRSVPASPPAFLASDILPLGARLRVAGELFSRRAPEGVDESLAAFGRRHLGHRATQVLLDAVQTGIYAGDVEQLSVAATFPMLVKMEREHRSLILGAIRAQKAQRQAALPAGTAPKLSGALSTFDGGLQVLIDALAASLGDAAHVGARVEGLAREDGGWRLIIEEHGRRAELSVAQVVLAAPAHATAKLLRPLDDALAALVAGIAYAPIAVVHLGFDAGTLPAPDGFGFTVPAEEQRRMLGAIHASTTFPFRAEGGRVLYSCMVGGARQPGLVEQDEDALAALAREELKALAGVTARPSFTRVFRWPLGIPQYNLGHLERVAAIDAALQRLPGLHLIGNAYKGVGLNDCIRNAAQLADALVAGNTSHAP
UniProt P56601, whole entry I311M: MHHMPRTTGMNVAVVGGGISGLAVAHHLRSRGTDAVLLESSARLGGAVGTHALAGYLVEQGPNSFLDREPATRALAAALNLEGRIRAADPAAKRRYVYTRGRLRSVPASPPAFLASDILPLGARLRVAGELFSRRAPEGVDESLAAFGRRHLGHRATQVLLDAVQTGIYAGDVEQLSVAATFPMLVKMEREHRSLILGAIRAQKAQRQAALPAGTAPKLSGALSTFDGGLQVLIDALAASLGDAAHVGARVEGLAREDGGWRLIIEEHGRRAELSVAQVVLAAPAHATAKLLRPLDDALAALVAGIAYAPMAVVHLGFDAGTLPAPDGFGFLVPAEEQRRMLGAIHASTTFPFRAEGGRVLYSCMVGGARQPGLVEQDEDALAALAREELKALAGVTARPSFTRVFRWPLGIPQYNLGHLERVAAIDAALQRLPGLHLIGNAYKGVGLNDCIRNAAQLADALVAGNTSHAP
UniProt P56601, whole entry A170C: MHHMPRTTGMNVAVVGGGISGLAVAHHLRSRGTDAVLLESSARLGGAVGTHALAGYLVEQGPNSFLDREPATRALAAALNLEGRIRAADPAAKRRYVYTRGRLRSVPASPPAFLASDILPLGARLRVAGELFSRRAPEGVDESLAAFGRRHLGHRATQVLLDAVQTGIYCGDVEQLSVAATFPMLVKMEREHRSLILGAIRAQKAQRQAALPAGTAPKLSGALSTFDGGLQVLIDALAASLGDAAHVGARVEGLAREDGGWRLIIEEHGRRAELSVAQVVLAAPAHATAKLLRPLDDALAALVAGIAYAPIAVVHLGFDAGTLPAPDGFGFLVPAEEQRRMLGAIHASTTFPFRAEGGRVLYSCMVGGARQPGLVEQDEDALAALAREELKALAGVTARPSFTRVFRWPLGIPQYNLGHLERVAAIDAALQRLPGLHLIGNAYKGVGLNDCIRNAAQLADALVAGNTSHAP
UniProt P56601, whole entry A170L: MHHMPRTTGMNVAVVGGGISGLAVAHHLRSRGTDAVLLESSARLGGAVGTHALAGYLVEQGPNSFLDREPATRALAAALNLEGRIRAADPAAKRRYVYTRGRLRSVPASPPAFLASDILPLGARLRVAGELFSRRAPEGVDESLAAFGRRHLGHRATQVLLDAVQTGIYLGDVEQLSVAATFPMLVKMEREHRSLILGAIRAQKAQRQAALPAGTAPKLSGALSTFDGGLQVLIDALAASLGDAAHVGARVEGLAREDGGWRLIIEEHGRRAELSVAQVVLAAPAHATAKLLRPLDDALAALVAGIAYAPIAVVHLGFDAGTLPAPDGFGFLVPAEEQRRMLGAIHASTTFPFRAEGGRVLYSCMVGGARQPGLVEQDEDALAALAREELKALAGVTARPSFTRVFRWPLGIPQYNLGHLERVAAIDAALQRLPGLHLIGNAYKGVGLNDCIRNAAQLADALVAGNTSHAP
UniProt A0A087SQM0, entry or part of it A215L: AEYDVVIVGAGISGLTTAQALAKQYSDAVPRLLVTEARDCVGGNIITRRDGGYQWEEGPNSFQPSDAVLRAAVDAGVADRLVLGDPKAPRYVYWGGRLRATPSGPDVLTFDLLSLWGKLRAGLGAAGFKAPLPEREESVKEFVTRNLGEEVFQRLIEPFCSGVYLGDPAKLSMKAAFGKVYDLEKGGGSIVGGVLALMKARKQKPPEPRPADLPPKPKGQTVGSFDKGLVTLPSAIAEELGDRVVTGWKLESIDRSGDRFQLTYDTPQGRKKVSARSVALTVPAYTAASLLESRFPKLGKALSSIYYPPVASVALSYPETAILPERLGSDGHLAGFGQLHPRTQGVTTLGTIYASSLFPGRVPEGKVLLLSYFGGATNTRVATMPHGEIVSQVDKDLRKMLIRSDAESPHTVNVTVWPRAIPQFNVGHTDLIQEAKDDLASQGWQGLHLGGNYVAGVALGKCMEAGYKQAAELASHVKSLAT
UniProt A0A087SQM0, 51-532: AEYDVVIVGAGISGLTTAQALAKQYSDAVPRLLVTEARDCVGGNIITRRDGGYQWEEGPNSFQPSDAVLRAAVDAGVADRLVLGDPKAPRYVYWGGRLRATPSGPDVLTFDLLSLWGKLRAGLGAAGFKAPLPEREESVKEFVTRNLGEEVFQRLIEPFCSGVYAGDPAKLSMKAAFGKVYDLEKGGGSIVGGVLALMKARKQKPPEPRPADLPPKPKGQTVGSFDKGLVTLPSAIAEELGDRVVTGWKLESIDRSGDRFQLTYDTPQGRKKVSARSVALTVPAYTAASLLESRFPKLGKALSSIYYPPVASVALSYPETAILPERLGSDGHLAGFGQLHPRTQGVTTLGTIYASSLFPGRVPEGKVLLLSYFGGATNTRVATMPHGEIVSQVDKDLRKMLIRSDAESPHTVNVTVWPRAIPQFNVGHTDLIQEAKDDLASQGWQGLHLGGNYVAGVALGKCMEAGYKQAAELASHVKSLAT
UniProt A0A087SQM0, entry or part of it R140A: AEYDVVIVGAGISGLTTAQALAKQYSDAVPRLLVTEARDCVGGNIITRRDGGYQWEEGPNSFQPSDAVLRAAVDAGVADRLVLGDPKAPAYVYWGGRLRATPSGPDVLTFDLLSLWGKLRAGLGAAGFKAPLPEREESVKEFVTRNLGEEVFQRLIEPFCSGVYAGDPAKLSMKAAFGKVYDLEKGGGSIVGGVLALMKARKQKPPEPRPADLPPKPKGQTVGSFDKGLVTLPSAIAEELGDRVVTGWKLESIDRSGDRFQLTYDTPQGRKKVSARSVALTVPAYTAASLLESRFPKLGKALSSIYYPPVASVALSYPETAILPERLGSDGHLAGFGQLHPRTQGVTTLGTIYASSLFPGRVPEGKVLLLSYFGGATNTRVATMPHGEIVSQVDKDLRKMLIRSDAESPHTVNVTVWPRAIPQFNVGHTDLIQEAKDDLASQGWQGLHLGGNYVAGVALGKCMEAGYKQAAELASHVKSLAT
UniProt A0A087SQM0, entry or part of it V213C: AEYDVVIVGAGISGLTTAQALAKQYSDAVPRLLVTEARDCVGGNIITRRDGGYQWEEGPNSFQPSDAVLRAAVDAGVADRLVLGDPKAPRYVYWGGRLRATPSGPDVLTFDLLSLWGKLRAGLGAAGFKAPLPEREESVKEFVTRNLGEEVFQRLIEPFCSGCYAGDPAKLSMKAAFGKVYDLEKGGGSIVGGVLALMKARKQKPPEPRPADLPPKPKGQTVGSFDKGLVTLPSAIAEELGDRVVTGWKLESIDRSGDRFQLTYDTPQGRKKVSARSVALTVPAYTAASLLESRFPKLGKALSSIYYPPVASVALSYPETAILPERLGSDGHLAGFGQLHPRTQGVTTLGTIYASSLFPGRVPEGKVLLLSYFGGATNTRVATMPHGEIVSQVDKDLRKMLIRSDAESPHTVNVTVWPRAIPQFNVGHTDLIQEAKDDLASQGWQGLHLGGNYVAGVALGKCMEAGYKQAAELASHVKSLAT

Tests used:
[1] = target: T1, Myxococcus xanthus MxPPO (SEQ ID NO: 3) variant R95A, fused to MBP (Myxococcus xanthus, UniProt P56601, R95A); assay: biochemical
T1 construct: For encoding the PPO protein (MxPPO); made in house; host or cells: BL21 CodonPlus(DE3) E. coli

[2] = test system: E. coli BT3(ΔPPO) transformed with Myxococcus xanthus MxPPO (SEQ ID NO: 3) variant M365I; assay: Herbicide tolerance test in PPO-deficient E. coli BT3(ΔPPO), growth on plates; assay type: cell-based; conditions: Table 9, light, tiafenacil to 2000 μM, saflufenacil to 200 μM, flumioxazin to 100 μM
[3] = target: T2, Myxococcus xanthus MxPPO (SEQ ID NO: 3) variant I168C, fused to MBP (Myxococcus xanthus, UniProt P56601, I168C); assay: PPO enzyme inhibition assay (IC50), MBP-fused PPO (Table 15); assay type: biochemical
T2 construct: For encoding the PPO protein (MxPPO); made in house; host or cells: BL21 CodonPlus(DE3) E. coli

[4] = target: T3, Myxococcus xanthus MxPPO (SEQ ID NO: 3) variant L332T, fused to MBP (Myxococcus xanthus, UniProt P56601, L332T); assay: as above; assay type: biochemical
T3 construct: made in house; host or cells: BL21 CodonPlus(DE3) E. coli

[5] = test system: E. coli BT3(ΔPPO) transformed with Myxococcus xanthus MxPPO (SEQ ID NO: 3) variant A170L; assay: Herbicide tolerance test in PPO-deficient E. coli BT3(ΔPPO), growth on plates; assay type: cell-based; conditions: Table 9, light, tiafenacil to 2000 μM, saflufenacil to 200 μM, flumioxazin to 100 μM
[6] = test system: E. coli BT3(ΔPPO) transformed with Myxococcus xanthus MxPPO (SEQ ID NO: 3) variant M365V; assay: as above; assay type: cell-based; conditions: Table 9, light, tiafenacil to 2000 μM, saflufenacil to 200 μM, flumioxazin to 100 μM
[7] = target: T4, Myxococcus xanthus MxPPO (protoporphyrinogen IX oxidase), wild type, SEQ ID NO: 3, fused to MBP (Myxococcus xanthus, UniProt P56601); assay: PPO enzyme inhibition assay (IC50), MBP-fused PPO (Table 15); assay type: biochemical
T4 construct: For encoding the PPO protein (MxPPO); made in house; host or cells: BL21 CodonPlus(DE3) E. coli

[8] = test system: E. coli BT3(ΔPPO) transformed with Myxococcus xanthus MxPPO (SEQ ID NO: 3) variant R95A + M365V; conditions: Table 10, light, flumioxazin to 400 μM, sulfentrazone to 1000 μM
[9] = target: T5, Myxococcus xanthus MxPPO (SEQ ID NO: 3) variant I311M, fused to MBP (Myxococcus xanthus, UniProt P56601, I311M); assay: biochemical
T5 construct: made in house; host or cells: BL21 CodonPlus(DE3) E. coli

[10] = test system: E. coli BT3(ΔPPO) transformed with Myxococcus xanthus MxPPO (SEQ ID NO: 3) variant M365L; assay: Herbicide tolerance test in PPO-deficient E. coli BT3(ΔPPO), growth on plates; assay type: cell-based; conditions: Table 9, light, tiafenacil to 2000 μM, saflufenacil to 200 μM, flumioxazin to 100 μM
[11] = test system: E. coli BT3(ΔPPO) transformed with Auxenochlorella protothecoides ApPPO1 wild type, SEQ ID NO: 1; assay: as above; assay type: cell-based; conditions: ApPPO1 WT, 37° C., 16 to 20 hours
Experimental: (§1) Then, the extent of tolerance was evaluated.

[12] = test system: E. coli BT3(ΔPPO) transformed with Myxococcus xanthus MxPPO wild type, SEQ ID NO: 3; assay: as above; assay type: cell-based; conditions: MxPPO WT
Experimental: as §1

[13] = test system: E. coli BT3(ΔPPO) transformed with Auxenochlorella protothecoides ApPPO1 (SEQ ID NO: 1) variant A215L (AL); assay: as above; assay type: cell-based; conditions: Table 7, light, 37° C., 16 to 20 hours, vs wild type at highest herbicide concentration
[14] = test system: E. coli BT3(ΔPPO) transformed with Auxenochlorella protothecoides ApPPO1 (SEQ ID NO: 1) variant Y422I (YI); assay type: cell-based; conditions: Table 7, light, 37° C., 16 to 20 hours, vs wild type at highest herbicide concentration
[15] = test system: E. coli BT3(ΔPPO) transformed with Myxococcus xanthus MxPPO (SEQ ID NO: 3) variant R95A + M365I; conditions: Table 10, light, flumioxazin to 400 μM, sulfentrazone to 1000 μM
[16] = target: T6, Myxococcus xanthus MxPPO (SEQ ID NO: 3) variant A170C, fused to MBP (Myxococcus xanthus, UniProt P56601, A170C); assay: PPO enzyme inhibition assay (IC50), MBP-fused PPO (Table 15); assay type: biochemical
T6 construct: made in house; host or cells: BL21 CodonPlus(DE3) E. coli

[17] = test system: E. coli BT3(ΔPPO) transformed with Myxococcus xanthus MxPPO (SEQ ID NO: 3) variant I311M; assay: Herbicide tolerance test in PPO-deficient E. coli BT3(ΔPPO), growth on plates; assay type: cell-based; conditions: Table 9, light, tiafenacil to 2000 μM, saflufenacil to 200 μM, flumioxazin to 100 μM
[18] = test system: E. coli BT3(ΔPPO) transformed with Myxococcus xanthus MxPPO (SEQ ID NO: 3) variant A170C; assay: as above; assay type: cell-based; conditions: Table 9, light, tiafenacil to 2000 μM, saflufenacil to 200 μM, flumioxazin to 100 μM
[19] = target: T7, Myxococcus xanthus MxPPO (SEQ ID NO: 3) variant A170L, fused to MBP (Myxococcus xanthus, UniProt P56601, A170L); assay: biochemical
T7 construct: made in house; host or cells: BL21 CodonPlus(DE3) E. coli

[20] = target: T8, Auxenochlorella protothecoides ApPPO1 (SEQ ID NO: 1) variant A215L, fused to MBP (Auxenochlorella protothecoides, UniProt A0A087SQM0, A215L); assay: biochemical
T8 construct: PPO part probably Met + residues 51-532 (transit peptide removed)

[21] = target: T9, Auxenochlorella protothecoides ApPPO1 (protoporphyrinogen IX oxidase), wild type, SEQ ID NO: 1, fused to MBP (Auxenochlorella protothecoides, UniProt A0A087SQM0); assay: PPO enzyme inhibition assay (IC50), MBP-fused PPO; assay type: biochemical
T9 construct: PPO part probably Met + residues 51-532 (transit peptide removed)

[22] = test system: E. coli BT3(ΔPPO) transformed with Auxenochlorella protothecoides ApPPO1 (SEQ ID NO: 1) variant Y422M (YM); assay: Herbicide tolerance test in PPO-deficient E. coli BT3(ΔPPO), growth on plates; assay type: cell-based; conditions: Table 7, light, 37° C., 16 to 20 hours, vs wild type at highest herbicide concentration
[23] = target: T10, Auxenochlorella protothecoides ApPPO1 (SEQ ID NO: 1) variant R140A, fused to MBP (Auxenochlorella protothecoides, UniProt A0A087SQM0, R140A); assay: PPO enzyme inhibition assay (IC50), MBP-fused PPO; assay type: biochemical
T10 construct: PPO part probably Met + residues 51-532 (transit peptide removed)

[24] = test system: E. coli BT3(ΔPPO) transformed with Auxenochlorella protothecoides ApPPO1 (SEQ ID NO: 1) variant Y422T (YT); assay: Herbicide tolerance test in PPO-deficient E. coli BT3(ΔPPO), growth on plates; assay type: cell-based; conditions: Table 7, light, 37° C., 16 to 20 hours, vs wild type at highest herbicide concentration
[25] = test system: E. coli BT3(ΔPPO) transformed with Auxenochlorella protothecoides ApPPO1 (SEQ ID NO: 1) variant Y422C (YC); assay: as above; assay type: cell-based; conditions: Table 7, light, 37° C., 16 to 20 hours, vs wild type at highest herbicide concentration
[26] = test system: E. coli BT3(ΔPPO) transformed with Auxenochlorella protothecoides ApPPO1 (SEQ ID NO: 1) variant A215C (AC); assay: as above; assay type: cell-based; conditions: Table 7, light, 37° C., 16 to 20 hours, vs wild type at highest herbicide concentration
[27] = test system: E. coli BT3(ΔPPO) transformed with Auxenochlorella protothecoides ApPPO1 (SEQ ID NO: 1) variant Y422L (YL); assay: as above; assay type: cell-based; conditions: Table 7, light, 37° C., 16 to 20 hours, vs wild type at highest herbicide concentration
[28] = target: T11, Auxenochlorella protothecoides ApPPO1 (SEQ ID NO: 1) variant V213C, fused to MBP (Auxenochlorella protothecoides, UniProt A0A087SQM0, V213C); assay: biochemical
T11 construct: PPO part probably Met + residues 51-532 (transit peptide removed)

[29] = test system: E. coli BT3(ΔPPO) transformed with Auxenochlorella protothecoides ApPPO1 (SEQ ID NO: 1) variant V360M (VM); assay: Herbicide tolerance test in PPO-deficient E. coli BT3(ΔPPO), growth on plates; assay type: cell-based; conditions: Table 7, light, 37° C., 16 to 20 hours, vs wild type at highest herbicide concentration
[30] = Table 7, light, vs wild type at highest herbicide concentration
[31] = Table 8, dark, tiafenacil to 200 μM, flumioxazin to 100 μM, sulfentrazone to 400 μM
[32] = Table 10, light, tiafenacil 2000 μM, flumioxazin to 400 μM, sulfentrazone to 1000 μM
[33] = Table 11, dark, flumioxazin to 1000 μM, sulfentrazone to 4000 μM

Structure (SMILES) | IC50 [1] | IC50 [3] | IC50 [4] | IC50 [7] | relative herbicide tolerance level [8] | IC50 [9] | relative herbicide tolerance level [11, 30] | relative herbicide tolerance level [11, 31] | relative herbicide tolerance level [12, 32] | relative herbicide tolerance level [12, 33] | relative herbicide tolerance level [13] | relative herbicide tolerance level [14] | relative herbicide tolerance level [15] | IC50 [16] | IC50 [19] | also measured
C#CCN1C(=O)COc2cc(F)c(N3C(=O)C4=C(CCCC4)C3=O)cc21 [flumioxazin] | 154 nM | 80 nM | 78 nM | 24 nM | + (1-9 fold higher tolerance) | 58 nM | − | − | − | − | ++++ (1,000-9,999 fold higher tolerance) | +++ (100-999 fold higher tolerance) | + (1-9 fold higher tolerance) | 546 nM | > 5000 nM | relative herbicide tolerance level [2]: ++ (10-99 fold higher tolerance); relative herbicide tolerance level [5]: ++ (10-99 fold higher tolerance); relative herbicide tolerance level [6]: ++ (10-99 fold higher tolerance); relative herbicide tolerance level [10]: ++ (10-99 fold higher tolerance); relative herbicide tolerance level ([12]; Table 9, light, tiafenacil to 2000 μM, saflufenacil to 200 μM, flumioxazin to 100 μM): −; relative herbicide tolerance level [17]: ++ (10-99 fold higher tolerance); relative herbicide tolerance level [18]: + (1-9 fold higher tolerance)
Cc1nn(-c2cc(NS(C)(=O)=O)c(Cl)cc2Cl)c(=O)n1C(F)F [sulfentrazone] | > 10000 nM | 1160 nM | 4770 nM | 534 nM | + (1-9 fold higher tolerance) | 1230 nM | − | − | − | − | +++ (100-999 fold higher tolerance) | + (1-9 fold higher tolerance) | + (1-9 fold higher tolerance) | 4570 nM | > 10000 nM | IC50 [20]: > 10000 nM; IC50 [21]: 348 nM; relative herbicide tolerance level [22]: + (1-9 fold higher tolerance); IC50 [23]: 973 nM; relative herbicide tolerance level [24]: + (1-9 fold higher tolerance); relative herbicide tolerance level [25]: ++ (10-99 fold higher tolerance); relative herbicide tolerance level [26]: + (1-9 fold higher tolerance); relative herbicide tolerance level [27]: + (1-9 fold higher tolerance); IC50 [28]: 526 nM; relative herbicide tolerance level [29]: + (1-9 fold higher tolerance)
